Assay results published in ChEMBL document CHEMBL3044593, “Design, synthesis and anticonvulsant evaluation of novel 8-substituted-4(3H)-quinazolines” (Med Chem Res, 2012).

Tested on: Mus musculus
Experiment: Protective index, ratio of TD50 for ip dosed Mus musculus (mouse) to ED50 for protection against pentylenetetrazol-induced seizures in ip dosed mouse
Assay type: functional

## CCCC(CCC)C(=O)[O-].[Na+] [VALPROATE SODIUM]
  Ratio TD50/ED50: 2
